Data reported in US11174301B2 (Takeda Pharmaceutical Company Limited, priority 2017, dated 2021).

By UniProt entry, the sequences of proteins in these tests, tags left out. Residues count along the entry.
UniProt P43220, 24-463: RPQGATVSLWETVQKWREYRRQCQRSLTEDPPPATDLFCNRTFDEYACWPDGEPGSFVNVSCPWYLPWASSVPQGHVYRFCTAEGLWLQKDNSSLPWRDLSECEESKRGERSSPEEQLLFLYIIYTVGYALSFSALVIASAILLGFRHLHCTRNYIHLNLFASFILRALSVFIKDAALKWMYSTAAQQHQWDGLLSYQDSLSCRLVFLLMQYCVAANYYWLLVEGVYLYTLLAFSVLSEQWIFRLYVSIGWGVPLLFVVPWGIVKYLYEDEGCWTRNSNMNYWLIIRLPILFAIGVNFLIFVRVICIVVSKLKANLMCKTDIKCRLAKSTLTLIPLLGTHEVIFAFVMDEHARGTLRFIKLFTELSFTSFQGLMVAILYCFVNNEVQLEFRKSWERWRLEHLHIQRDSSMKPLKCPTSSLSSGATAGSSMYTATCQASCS

How the values were obtained:
human GIPR [1] = target: T1, human GIPR (Homo sapiens, UniProt P48546); assay: Binding activity to human GIPR using [125I]-GIP (GIPR_VLP); conditions: [125I]GIP 100 pM, room temperature 2 hours
T1 construct: expressed in transfected cells; host or cells: CHO-K1 (CRE-LUC/CHO-K1 reporter cell; hGIPR/CRE-LUC/CHO-K1 line)
T1 sequence (P48546 22-466): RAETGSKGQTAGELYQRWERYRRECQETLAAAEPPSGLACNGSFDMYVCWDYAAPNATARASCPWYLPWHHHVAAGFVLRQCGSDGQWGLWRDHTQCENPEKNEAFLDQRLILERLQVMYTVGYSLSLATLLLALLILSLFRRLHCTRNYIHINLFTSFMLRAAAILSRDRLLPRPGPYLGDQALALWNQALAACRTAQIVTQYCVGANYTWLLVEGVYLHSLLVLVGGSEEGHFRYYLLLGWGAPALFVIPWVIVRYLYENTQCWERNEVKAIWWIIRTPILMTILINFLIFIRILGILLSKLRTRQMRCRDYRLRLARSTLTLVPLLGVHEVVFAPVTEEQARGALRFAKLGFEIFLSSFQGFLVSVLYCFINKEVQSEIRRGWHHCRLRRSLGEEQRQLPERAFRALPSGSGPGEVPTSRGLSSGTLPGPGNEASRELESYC
Method: The GF/C glass fiber filter 96-well plate in which VLP was trapped was dried at 42° C. overnight. Thereafter, MicroScint-O (PerkinElmer 6013611) was added to the GF/C glass fiber filter 96-well plate sealed using a backseal and the plate was sealed using a topseal.

human GLP-1R = target: T2, human GLP-1R (Homo sapiens, UniProt P43220); assay: Agonist activity on human GLP-1R, CRE-luciferase reporter assay with increase in intracellular cAMP as indicator; format: cell-based; conditions: hGLP-1R/CRE-luc/CHO-K1 cells, 4 hours incubation, 10 nM GLP-1 = 100%
T2 construct: expressed in transfected cells; host or cells: CHO-K1 (hGLP-1R/CRE-luc/CHO-K1 line)
Excerpt: (3) Construction of Reporter Plasmid
(5) Construction of Expression Plasmid of Human GLP-1R Gene
(6) Transfer of Human GLP-1R Gene and Reporter Plasmid to CHO-K1 Cell and Obtaining of Expressing Cell
The Cre-luc (Zeo) obtained in (3) and the plasmid hGLP-1/pIRESneo3 obtained in (5) were transferred to the CHO-K1 cell to obtain a transformant. Subsequently, the cell line inducing the luciferase expression, hGLP-1R/CRE-luc/CHO-K1 cell, was selected from the obtained transformant by adding GLP-1.
(§1) Steady-Glo (Promega) was added in amounts of 30 μL and shaken under light shielding. 20 Minutes later, luciferase activity was measured using a plate reader Envision (PerkinElmer).

human GIPR [2] = target: T1, human GIPR; assay: Agonist activity on human GIPR, CRE-luciferase reporter assay with increase in intracellular cAMP as indicator; format: cell-based; conditions: hGIPR/CRE-LUC/CHO-K1 cells, 4 hours incubation, 10 nM GIP = 100%
Method: (2) Construction of Reporter Plasmid Expressing Cell
(4) Transfer of Human GIPR Gene to CRE-LUC/CHO-K1 Cell and Obtaining of Expressing Cell
Subsequently, the cell line inducing the luciferase expression, hGIPR/CRE-LUC/CHO-K1 cell, was selected from the obtained transformant by adding GIP.
as §1

Substance	IC50 (human GIPR [1]) [nM]	EC50 (human GLP-1R) [nM]	EC50 (human GIPR [2]) [nM]
Me-Tyr-Aib-Glu-Gly-Thr-Iva-Ile-Ser-Asp-Tyr-Ser-Ile-Aib-Lys(Eda-GGGGGG-)-Asp-Arg-Aib-Ala-Gln-Aib-Asn-Phe-Val-Asn-Trp-Iva-Leu-Ala-Gln-Arg-Pro-Ser-Ser-Gly-Ala-Pro-Pro-Pro-Ser-Arg-NH2 [Compound 520]	18	> 1000	0.056
Me-Tyr-Aib-Glu-Gly-Thr-Iva-Ile-Ser-Asp-Tyr-Ser-Ile-Aib-Lys(Eda-GGGGGG-)-Asp-Arg-Aib-Ala-Gln-Aib-Asn-Phe-Val-Asn-Trp-Iva-Leu-Ala-Gln-Arg-Pro-Ser-Ser-Gly-Ala-Pro-Pro-Pro-Ser-NH2 [Compound 342]	13	> 1000	0.045
Me-Tyr-Aib-Glu-Gly-Thr-Iva-Ile-Ser-Asp-Tyr-Ser-Ile-Aib-Lys(Eda-GGGGGG-)-Asp-Arg-Aib-His-Gln-Aib-Asn-Phe-Val-Asn-Trp-Iva-Leu-Ala-Gln-Arg-Pro-Ser-Ser-Gly-Ala-Pro-Pro-Pro-Ser-NH2 [Compound 521]	20	> 1000	0.054
Me-Tyr-Aib-Glu-Gly-Thr-Iva-Ile-Ser-Asp-Tyr-Ser-Ile-Aib-Lys(Hda-GGGGG-)-Asp-Arg-Aib-Ala-Gln-Aib-Asn-Phe-Val-Asn-Trp-Iva-Leu-Ala-Gln-Arg-Pro-Ser-Ser-Gly-Ala-Pro-Pro-Pro-Ser-NH2 [Compound 459]	1.7	> 1000	0.0027
Me-Tyr-Aib-Glu-Gly-Thr-Iva-Ile-Ser-Asp-Tyr-Ser-Ile-Aib-Lys(Heda-GGGGG-)-Asp-Arg-Aib-Ala-Gln-Aib-Asn-Phe-Val-Asn-Trp-Iva-Leu-Ala-Gln-Arg-Pro-Ser-Ser-Gly-Ala-Pro-Pro-Pro-Ser-NH2 [Compound 445]	0.92	> 1000	0.0056
Me-Tyr-Aib-Glu-Gly-Thr-Iva-Ile-Ser-Asp-Tyr-Ser-Ile-Aib-Lys(Heda-GGGGG-)-Asp-Arg-Aib-His-Gln-Aib-Asn-Phe-Val-Asn-Trp-Iva-Leu-Ala-Gln-Arg-Pro-Ser-Ser-Gly-Ala-Pro-Pro-Pro-Ser-NH2 [Compound 507]	5.4	> 1000	0.0068
Me-Tyr-Aib-Glu-Gly-Thr-Iva-Ile-Ser-Asp-Tyr-Ser-Ile-Aib-Lys(Heda-GGGGGG-)-Asp-Arg-Aib-Ala-Gln-Aib-Asn-Phe-Val-Asn-Trp-Iva-Leu-Ala-Gln-Arg-Pro-Ser-Ser-Gly-Ala-Pro-Pro-Pro-Ser-NH2 [Compound 457]	1.4	> 1000	0.0026
Me-Tyr-Aib-Glu-Gly-Thr-Iva-Ile-Ser-Asp-Tyr-Ser-Ile-Aib-Lys(Heda-GGGGGG-)-Asp-Arg-Aib-His-Gln-Aib-Asn-Phe-Val-Asn-Trp-Iva-Leu-Ala-Gln-Arg-Pro-Ser-Ser-Gly-Ala-Pro-Pro-Pro-Ser-NH2 [Compound 509]	7.3	> 1000	0.011
Me-Tyr-Aib-Glu-Gly-Thr-Iva-Ile-Ser-Asp-Tyr-Ser-Ile-Aib-Lys(Hepda-GGGGG-)-Asp-Arg-Aib-Ala-Gln-Aib-Asn-Phe-Val-Asn-Trp-Iva-Leu-Ala-Gln-Arg-Pro-Ser-Ser-Gly-Ala-Pro-Pro-Pro-Ser-NH2 [Compound 465]	2.2	> 1000	0.0056
Me-Tyr-Aib-Glu-Gly-Thr-Iva-Ile-Ser-Asp-Tyr-Ser-Ile-Aib-Lys(Hepda-GGGGG-)-Asp-Arg-Aib-His-Gln-Aib-Asn-Phe-Val-Asn-Trp-Iva-Leu-Ala-Gln-Arg-Pro-Ser-Ser-Gly-Ala-Pro-Pro-Pro-Ser-NH2 [Compound 508]	9.1	> 1000	0.018
Me-Tyr-Aib-Glu-Gly-Thr-Iva-Ile-Ser-Asp-Tyr-Ser-Ile-Aib-Lys(Hepda-GGGGGG-)-Asp-Arg-Aib-Ala-Gln-Aib-Asn-Phe-Val-Asn-Trp-Iva-Leu-Ala-Gln-Arg-Pro-Ser-Ser-Gly-Ala-Pro-Pro-Pro-Ser-Arg-NH2 [Compound 506]	5.3	> 1000	0.012
Me-Tyr-Aib-Glu-Gly-Thr-Iva-Ile-Ser-Asp-Tyr-Ser-Ile-Aib-Lys(Hepda-GGGGGG-)-Asp-Arg-Aib-Ala-Gln-Aib-Asn-Phe-Val-Asn-Trp-Iva-Leu-Ala-Gln-Arg-Pro-Ser-Ser-Gly-Ala-Pro-Pro-Pro-Ser-NH2 [Compound 466]	1.8	> 1000	0.0061
Me-Tyr-Aib-Glu-Gly-Thr-Iva-Ile-Ser-Asp-Tyr-Ser-Ile-Aib-Lys(Hepda-GGGGGG-)-Asp-Arg-Aib-His-Gln-Aib-Asn-Phe-Val-Asn-Trp-Iva-Leu-Ala-Gln-Arg-Pro-Ser-Ser-Gly-Ala-Pro-Pro-Pro-Ser-Arg-NH2 [Compound 514]	12	> 1000	0.024
Me-Tyr-Aib-Glu-Gly-Thr-Iva-Ile-Ser-Asp-Tyr-Ser-Ile-Aib-Lys(Hepda-GGGGGG-)-Asp-Arg-Aib-His-Gln-Aib-Asn-Phe-Val-Asn-Trp-Iva-Leu-Ala-Gln-Arg-Pro-Ser-Ser-Gly-Ala-Pro-Pro-Pro-Ser-NH2 [Compound 510]	12	> 1000	0.018
Me-Tyr-Aib-Glu-Gly-Thr-Iva-Ile-Ser-Asp-Tyr-Ser-Ile-Aib-Lys(Oda-GGGGGG-)-Asp-Arg-Aib-Ala-Gln-Aib-Asn-Phe-Val-Asn-Trp-Iva-Leu-Ala-Gln-Arg-Pro-Ser-Ser-Gly-Ala-Pro-Pro-Pro-Ser-Arg-NH2 [Compound 479]	4.6	> 1000	0.014
Me-Tyr-Aib-Glu-Gly-Thr-Iva-Ile-Ser-Asp-Tyr-Ser-Ile-Aib-Lys(Oda-GGGGGG-)-Asp-Arg-Aib-Ala-Gln-Aib-Asn-Phe-Val-Asn-Trp-Iva-Leu-Ala-Gln-Arg-Pro-Ser-Ser-Gly-Ala-Pro-Pro-Pro-Ser-NH2 [Compound 439]	3.1	> 1000	0.016
Me-Tyr-Aib-Glu-Gly-Thr-Iva-Ile-Ser-Asp-Tyr-Ser-Ile-Aib-Lys(Oda-GGGGGG-)-Asp-Arg-Aib-His-Gln-Aib-Asn-Phe-Val-Asn-Trp-Iva-Leu-Ala-Gln-Arg-Pro-Ser-Ser-Gly-Ala-Pro-Pro-Pro-Ser-NH2 [Compound 484]	10	> 1000	0.026
Methyl-Tyr-Aib-Glu-Gly-Thr-Iva-Ile-Ser-Asp-Tyr-Ser-Ile-Aib-Leu-Asp-Arg-Aib-Ala-Gln-Aib-Asn-Phe-Val-Asn-Trp-Iva-Leu-Ala-Gln-Arg-Pro-Ser-Ser-Gly-Ala-Pro-Pro-Pro-Ser-Arg-NH2 [Compound 113]	1.9	> 1000	0.0012
Methyl-Tyr-Aib-Glu-Gly-Thr-Iva-Ile-Ser-Asp-Tyr-Ser-Ile-Ala-Leu-Asp-Arg-Aib-Ala-Gln-Aib-Asn-Phe-Val-Asn-Trp-Leu-Leu-Ala-Gln-Arg-Pro-Ser-Ser-Gly-Ala-Pro-Pro-Pro-Ser-Arg-NH2 [Compound 104]	1.5	> 1000	0.0014
Methyl-Tyr-Aib-Glu-Gly-Thr-Phe-Ile-Ser-Asp-Tyr-Ser-Ile-Ala-Leu-Asp-Arg-Aib-His-Gln-Aib-Asn-Phe-Val-Asn-Trp-Iva-Leu-Ala-Gln-Arg-Pro-Ser-Ser-Gly-Ala-Pro-Pro-Pro-Ser-Arg-NH2 [Compound 117]	5.2	> 1000	0.0017
